Measured values reported in patent US8258137B2, “Process for release of biologically active species from mesoporous oxide systems” (Katholieke Universiteit Leuven, priority 2008, dated 2012).

Experiment: Rat in situ intestinal perfusion (ileum, mesenteric blood)
Settings: saturated and supersaturated itraconazole perfusate

Q: With hydroxy-itraconazole as the substance, how does the “metabolite in mesenteric blood during perfusion” value read?
A: Its value is “no significant amounts could be detected”.
